Source: PubChem BioAssay AID1510 (The Scripps Research Institute Molecular Screening Center, 2009)
This is a selection; strong and weak results do not stand in their true shares. Activity calls are given as the source filed them. No stated cut-off is given here; in the data, active means inhibition above about 29%; inactive means the rest.

By UniProt entry, the sequences of proteins in these tests, tags left out.
UniProt O95977, whole entry: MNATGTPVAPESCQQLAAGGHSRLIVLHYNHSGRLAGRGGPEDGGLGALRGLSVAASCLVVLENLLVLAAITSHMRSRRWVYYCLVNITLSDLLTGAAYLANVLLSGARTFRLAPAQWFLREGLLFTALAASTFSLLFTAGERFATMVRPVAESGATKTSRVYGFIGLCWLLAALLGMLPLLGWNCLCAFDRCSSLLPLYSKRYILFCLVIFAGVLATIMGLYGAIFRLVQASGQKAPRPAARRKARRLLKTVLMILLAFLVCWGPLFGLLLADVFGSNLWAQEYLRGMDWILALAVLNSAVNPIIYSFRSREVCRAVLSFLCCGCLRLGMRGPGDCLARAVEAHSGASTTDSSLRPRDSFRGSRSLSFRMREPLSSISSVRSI

The molecules below were run against Sphingosine 1-phosphate receptor 4 (Homo sapiens) (UniProt O95977) (assay: blockers of human S1P4 receptor – cell-based, primary screen (AID 1510;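 further: 0% = wells stimulated with agonist and 100% = vehicle wells without agonist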)). Conditions: S1P4-expressing cells, antagonist mode, reporter read-out; at 4.98 µM; stronger effect = higher value.

Compound	inhibition
CN(C)c1ccc(C(=O)NCC2(N3CCCCC3)CCCCC2)cc1	inactive: -15.6%
CCN1CCC(Nc2cccc(F)c2)CC1	inactive: -3.11%
CCCOc1ccc(C)cc1CN(CCCl)CCCl	inactive: 2.57%
CCC(CO)(C(=O)OC1CN2CCC1CC2)c1ccccc1 (centres undefined)	inactive: 1.17%
COc1cc(OC)cc(C(=O)NCC2(N3CCOCC3)CCCCC2)c1	inactive: -12.4%
CC(C)(C)OC(=O)N1CCC(Nc2ccccc2)CC1	inactive: -24.3%
CCOc1ncccc1C(=O)NCC1(N2CCOCC2)CCCCC1	inactive: 9.66%
O=C(OC1CN2CCC1CC2)C1c2ccccc2C=Cc2ccccc21 (centres undefined)	inactive: 13.5%
N/C(=N\O)c1c(N)no[n+]1[O-]	inactive: -1.16%
COc1ccc(C(=O)NCC2(N3CCOCC3)CCCCC2)cc1OC	inactive: 2.08%
c1ccc(CN2CCC(Nc3ccccc3)CC2)cc1	inactive: -9.68%
N#Cc1ccc(C(=O)NCC2(N3CCCCC3)CCCCC2)cc1	inactive: -5.32%
CN1CCN(CCOC(=O)C(O)(c2ccccc2)c2ccccc2)CC1	inactive: -11.5%
COc1ccc(NC2CCN(C(=O)OC(C)(C)C)CC2)cc1	inactive: -8.85%
O=C(NCC1(N2CCOCC2)CCCCC1)c1cc(=O)[nH]c2ccccc12	inactive: -1.85%
O=C(NCC1(N2CCCCC2)CCCCC1)c1cccc([N+](=O)[O-])c1	inactive: 3.29%
N#CC1(Nc2ccccc2)CCN(CCc2ccccc2)CC1	inactive: 11.4%
CN1CCC(Nc2cccc(F)c2)CC1	inactive: -29.4%
CN(C)c1cccc(C(=O)NCC2(N3CCCCC3)CCCCC2)c1	inactive: -6.31%
COc1ccc(CN(CCCl)CCCl)cc1Cl	inactive: 5.02%
CC(C)c1ccc(NC2CCN(C(=O)OC(C)(C)C)CC2)cc1	inactive: -41.6%
CCOC(=O)N1CCC(Nc2ccc(OC)cc2)CC1	inactive: 0.89%
O=C(OC1CN2CCC1CC2)C1c2ccccc2Oc2ccccc21 (centres undefined)	inactive: -21%
N#CC1(Nc2ccccc2)CCN(Cc2ccccc2)CC1	inactive: 7.18%
O=C(NCC1(N2CCOCC2)CCCCC1)c1cc2ccccc2o1	inactive: 0.18%
COc1ccc(C(=O)NCC2(N3CCCCC3)CCCCC2)c(OC)c1OC	inactive: -15.4%
Cc1ccc(OCC(C)C)c(CN(CCCl)CCCl)c1	inactive: 3.28%
COc1ccc(NC2CCN(CCc3ccccc3)CC2)c(OC)c1	inactive: -5.73%
CCOc1ccc(C)cc1CN(CCCl)CCCl	inactive: 8.82%
